Source: ChEMBL document CHEMBL1128425, “5-Methyl-1-(3-pyridylcarbamoyl)-1,2,3,5-tetrahydropyrrolo[2,3-f]indole: a novel 5-HT2C/5-HT2B receptor antagonist with improved affinity, selectivity, and oral activity” (J Med Chem, 1995)

Protein sequences, listed by entry. Tags and fused reporters are not part of them. Lines headed by an entry give the natural chain unless they say otherwise; changes in a name come on top.
UniProt P28335: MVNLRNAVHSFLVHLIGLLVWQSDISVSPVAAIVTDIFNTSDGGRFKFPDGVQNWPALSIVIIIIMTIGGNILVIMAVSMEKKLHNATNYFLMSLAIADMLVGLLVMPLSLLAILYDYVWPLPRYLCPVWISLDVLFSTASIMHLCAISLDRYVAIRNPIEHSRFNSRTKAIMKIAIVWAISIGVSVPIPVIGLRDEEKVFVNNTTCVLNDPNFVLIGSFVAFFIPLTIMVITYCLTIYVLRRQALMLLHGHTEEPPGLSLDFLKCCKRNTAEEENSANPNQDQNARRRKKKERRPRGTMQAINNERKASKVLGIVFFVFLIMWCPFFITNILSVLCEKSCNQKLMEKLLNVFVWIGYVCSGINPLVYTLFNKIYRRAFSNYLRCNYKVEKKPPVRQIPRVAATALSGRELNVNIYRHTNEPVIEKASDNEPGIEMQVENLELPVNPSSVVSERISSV

Molecular target: 5-hydroxytryptamine receptor 2C (Homo sapiens, UniProt P28335)
Assay: Binding affinity against human 5-hydroxytryptamine 2C receptor expressed in 293 cells using [3H]mesulergine
Assay type: cell-based, HEK293
How it was run: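 Radioligand binding at cloned human receptors expressed in 293 cells: [³H]ketanserin for 5-HT2A, [³H]mesulergine for 5-HT2C. Values are means ± SEM of n ≥ 3 determinations.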

Cn1ccc2cc3c(cc21)CCN3C(=O)Nc1cccnc1 gave a Ki of 10 nM.
